From patent US9598411B2, “Substituted benzimidazole-type piperidine compounds and uses thereof” (priority 2012, dated 2017)

Key:
[1] = target: T1, human opioid receptor-like (ORL-1) receptor (Homo sapiens (Human), UniProt P41146); assay: In vitro ORL-1 receptor [35S]GTPγS functional assay; type: biochemical
[2] = target: human kappa opioid receptor (Homo sapiens (Human), UniProt P41145); assay: In vitro kappa-opioid receptor binding assay ([3H]-U69,593 displacement)
[3] = target: T1, human opioid receptor-like (ORL-1) receptor; assay: In vitro ORL-1 receptor binding assay ([3H]-nociceptin displacement)
delta opioid receptor = delta opioid receptor (Homo sapiens (Human), UniProt P41143); assay: In vitro delta-opioid receptor binding assay ([3H]-Naltrindole displacement)

SMILES	GTPγS ORL-1 Emax [mean ± SEM] ([1]; procedure of Example 22) [%]	pEC50 ([1]; read-out: GTPγS ORL-1 EC50 [mean ± SEM], procedure of Example 22)	pKi [2]	pKi [3]	pKi (delta opioid receptor)
O=C(O)CO/N=C/c1nc2ccccc2n1C1C[C@H]2CCC[C@@H](C1)N2[C@H]1C[C@@H]2CCC[C@@H](C2)C1 (stereo partly drawn)	34.7 ± 1.5	7.07	5.81	6.99	5.40
OCc1nc2ccccc2n1C1C[C@H]2CCC[C@@H](C1)N2[C@H]1C[C@@H]2CCC[C@@H](C2)C1 (stereo partly drawn)	–	–	–	–	< 4.70

pEC50, pKi: −log10 of the molar value.
